Values quoted from earlier work, collected in patent US11512075B2 (priority 2017, dated 2022).

Amino acid sequences for entries named in this document (tags omitted). A change or cut given only in a name is not applied to a line headed by its entry.
UniProt P41145: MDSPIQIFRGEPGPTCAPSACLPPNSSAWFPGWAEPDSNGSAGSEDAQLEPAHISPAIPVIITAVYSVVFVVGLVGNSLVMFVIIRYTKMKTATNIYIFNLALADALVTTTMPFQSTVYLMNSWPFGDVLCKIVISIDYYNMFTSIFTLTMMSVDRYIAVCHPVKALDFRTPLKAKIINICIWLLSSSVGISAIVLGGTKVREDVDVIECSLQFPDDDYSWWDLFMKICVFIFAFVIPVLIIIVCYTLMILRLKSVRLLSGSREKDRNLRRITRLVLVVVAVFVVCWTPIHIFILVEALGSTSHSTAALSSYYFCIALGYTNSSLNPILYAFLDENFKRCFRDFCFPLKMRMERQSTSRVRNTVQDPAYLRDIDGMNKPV

Target: kappa-opioid receptor (Homo sapiens, UniProt P41145)
Conditions: C8 epimerization; cited from earlier work

## COC(=O)[C@@H]1C[C@H](OC(C)=O)C(=O)[C@H]2[C@@]1(C)CC[C@H]1C(=O)O[C@H](c3ccoc3)C[C@]21C [8-epi-SA, 8-epi-salvinorin A]
  loss in potency versus SalA: 154-356 fold
